# Earlier results, collected in patent US10160747B2, “Compounds and methods for kinase modulation, and indications therefor” (Plexxikon Inc., priority 2016, dated 2018).
# Tested on: relapsed or chemotherapy-refractory FLT3-ITD+AML patients
# Settings: phase II monotherapy; cited from earlier work
smiles,measurement,value
CC(C)(C)c1cc(NC(=O)Nc2ccc(-c3cn4c(n3)sc3cc(OCCN5CCOCC5)ccc34)cc2)no1 [quizartinib],composite complete remission (CRc) rate,about 50%
